Experimental data reported in patent US4057644A, “Active derivatives of methylamine in therapeutic compositions and methods of use” (priority 1976, dated 1977).

Key:
mice = conditions: LD50 mice oral / dose giving 100% inhibition of catatonia;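 further: LD50 part of every column derived from compounds dosed in aqueous solution, deaths followed over a 10-day observation period after dosing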
[1] = test system: reserpine-induced catatonia; assay: Suppression of reserpine-induced catatonia (curative treatment); format: in vivo, rat (male, OFA strain); conditions: versus amantadine 80 mg/kg
Protocol: Batches of 5 male rats of the OFA strain, weighing 150 to 200 g were given 5 mg/kg of reserpine by intraperitoneal route. One hour and 45 minutes later, namely when the animals were in state of catatonia, an aqueous dose of the compound to be studied was administered by oral route to all the animals with the exception of the control group.
The progress of the catatonia was then noted following the scale used in the tests described hereabove.
The maximum score was thus 5 per batch which means that all the animals of the batch were considered to be still in a state of catatonia.

[2] = test system: neuroleptic-induced catatonia (prochlorperazine); assay: Suppression of neuroleptic-induced catatonia (curative treatment); format: in vivo, rat (male, OFA strain); conditions: versus amantadine 80 mg/kg
Protocol: Fifty-five minutes later, an oral dose in aqueous solution of the compound to be studied was administered to all the animals with the exception of the control group. The progress of the catatonia was noted following the same scale as that used in the tests described above.

Compound	Index LD50/ED100 (mice)	activity relative to amantadine, curative treatment, reserpine-induced catatonia [1]	activity relative to amantadine, curative treatment, neuroleptic-induced catatonia [2]
CCCC(N)(CCC)CCC [Compound 1]	20	at least 32 times	at least 16 times
CCCC(N)(CCC)CCC	≈ 33	–	–
